Measured values: paper PMC9768450, “Succinyl-CoA:acetate CoA-transferase functioning in the oxidative tricarboxylic acid cycle in Desulfurella acetivorans” (Frontiers in Microbiology, 2022)

System: CC(=O)O
Assay: purified protein
Settings: co-substrate succinyl-CoA 2 mM, 100 mM Tris-HCl pH 7.8, 5 mM MgCl2, 5 mM DTT, 55 °C

succinyl-CoA:acetate CoA-transferase encoded by the AHF96498 gene (AHF96498 gene product) (Desulfurella acetivorans A63)
Km: 400 ± 70 µM | Vmax: 9 µmol/min/mg | kcat/Km: 23000 M⁻¹ s⁻¹
